Source: ChEMBL document CHEMBL4371059 (J Med Chem, 2019)

Sequences of proteins named here, by UniProt entry; tags and fusion partners are left off.
UniProt P97266, whole entry: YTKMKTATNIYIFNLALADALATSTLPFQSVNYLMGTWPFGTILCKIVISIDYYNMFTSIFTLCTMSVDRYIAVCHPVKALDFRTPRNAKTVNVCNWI
UniProt P41145, whole entry: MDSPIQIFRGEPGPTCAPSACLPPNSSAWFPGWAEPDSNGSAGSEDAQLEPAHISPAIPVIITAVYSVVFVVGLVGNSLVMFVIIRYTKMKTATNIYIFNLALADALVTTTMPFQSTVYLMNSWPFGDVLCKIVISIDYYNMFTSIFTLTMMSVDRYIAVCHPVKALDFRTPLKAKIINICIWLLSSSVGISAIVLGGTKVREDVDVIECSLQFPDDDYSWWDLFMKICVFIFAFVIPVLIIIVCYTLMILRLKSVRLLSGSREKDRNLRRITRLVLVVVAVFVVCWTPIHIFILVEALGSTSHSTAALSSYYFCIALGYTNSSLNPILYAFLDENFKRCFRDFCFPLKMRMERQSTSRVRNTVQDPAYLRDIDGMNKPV

Molecular target: Mu-type opioid receptor (Cavia porcellus, UniProt P97266)
Test: Displacement of [3H]DAMGO from MOR in guinea pig brain membranes at 1 uM after 120 mins by scintillation counting method relative to control
Conditions: 2 h

Compound	inhibition (INH) [%]
O=C(Cc1ccc(Cl)c(Cl)c1)N1CCN(CCCCF)[C@H]2CCC[C@H](N3CCCC3)[C@H]21	8
O=C(Cc1ccc(Cl)c(Cl)c1)N1CCN(C(=O)COCCF)[C@H]2CCC[C@H](N3CCCC3)[C@H]21	0
O=C(Cc1ccc(Cl)c(Cl)c1)N1CCN(CCF)[C@H]2CCC[C@H](N3CCCC3)[C@H]21	12

Molecular target: Kappa-type opioid receptor (Homo sapiens, UniProt P41145)
Test: not given
Conditions: not given

Compound	EC50 [nM]
O=C(Cc1ccc(Cl)c(Cl)c1)N1CCN[C@H]2CCC[C@H](N3CCCC3)[C@H]21	1.2
CCCCN1CCN(C(=O)Cc2ccc(Cl)c(Cl)c2)[C@@H]2[C@@H](N3CCCC3)CCC[C@@H]21 (racemic)	6
CCN1CCN(C(=O)Cc2ccc(Cl)c(Cl)c2)[C@H]2[C@@H]1CCC[C@@H]2N1CCCC1	2
O=C(Cc1ccc(Cl)c(Cl)c1)N1CCN(C(=O)COCCF)[C@H]2CCC[C@H](N3CCCC3)[C@H]21	10
CN1CCN(C(=O)Cc2ccc(Cl)c(Cl)c2)[C@H]2[C@@H]1CCC[C@@H]2N1CCCC1	3.4
O=C(Cc1ccc(Cl)c(Cl)c1)N1CCN(Cc2ccc(F)cc2)[C@H]2CCC[C@H](N3CCCC3)[C@H]21	32
CCCN1CCN(C(=O)Cc2ccc(Cl)c(Cl)c2)[C@@H]2[C@@H](N3CCCC3)CCC[C@@H]21 (racemic)	1.6
